Test results published in patent publication EP4835056A1, “CELL CULTURE METHOD” (dated 2026).

Tests used:
[1] = system: iPS cell-derived CAR-T cells; assay: Proliferation test: adding carnosine or α-tocopherol to serum-free expansion culture medium (Experimental Example 1-1); settings: result in words; for proliferation of iPS cell-derived CAR-T cells / survival rate of iPS cell-derived CAR-T cells: 20 mM carnosine or 100 µM α-tocopherol added to serum-free medium
Procedure: A total of three types of expansion culture media were prepared: a medium containing the components listed in Table 2 (hereinafter to be referred to as BM220720), and further, the additives listed in the "expansion culture medium 2" column in Table 1, and said medium added with 20 mM carnosine (Sigma-Aldrich) or 100 µM α-tocopherol (Sigma-Aldrich). As an experimental control, a medium was prepared by adding the additives listed in the "expansion culture medium 1" column in Table 1 to IMDM medium containing 15% FBS. After 3 days of activation culture, the cells were collected from the T225 flask and suspended in each of the four types of expansion culture media at 40,000 cells/mL, and cultured under 5% CO2/37°C using G-Rex (registered trademark) 6M (Wilson Wolf). Then, on the second day of culture, some of the cells were recovered from G-Rex (registered trademark) 6M and the cells were counted, and the medium was replaced with the respective medium. On the third day of culture, some of the cells were recovered from G-Rex (registered trademark) 6M and the cells were counted. On the fourth day of culture, some of the cells were recovered from G-Rex (registered trademark) 6M and the cells were counted.
In the expansion culture of item 6 in Example 1, the cell number and survival rate of iPS cell-derived CAR-T cells were measured on days 2, 3, and 4 of expansion culture. The proliferation of iPS cell-derived CAR-T cells was promoted by adding 20 mM carnosine or 100 µM α-tocopherol to a serum-free medium (Table 3). […] The survival rate of iPS cell-derived CAR-T cells was improved by adding 20 mM carnosine or 100 µM α-tocopherol to the serum-free medium (Table 4).

[2] = system: iPS cell-derived CAR-T cells; assay: Proliferation ability of cryopreserved cells in serum-containing medium after thawing (Experimental Example 1-2); settings: expansion culture medium contained 20 mM carnosine or 100 µM α-tocopherol before cryopreservation; result in words
Procedure: In the expansion culture of item 6 of Example 1, cells were collected on the third day of expansion culture of iPS cell-derived CAR-T cells, and the cells were counted. A suspension containing a specified number of cells was centrifuged at 300xg for 5 minutes, and the supernatant was removed. The cell aggregate was suspended at 8,000,000 cells/mL in MEM medium to which Albumin 25% I.V. Injection 12.5 g/50 mL (product name) was added to a final albumin concentration of 5%, an equal amount of CryoStor (registered trademark) CS10 (STEMCELL Technologies) was added to this suspension, and the mixture was cryopreserved. After thawing the cryopreserved cells, the cells were suspended in IMDM medium containing 15% FBS, 2 mM glutamine, ITS (x1), and 50 µg/mL ascorbic acid 2-phosphate sesquimagnesium salt hydrate at 125,000 cells/mL, and cultured under 5% CO2/37°C by using a G-Rex 24-well plate. The number of viable cells and cell survival rate were measured on days 0, 3, and 7 of culture. […] However, the proliferation fold was lower than that of cells expanded in a medium containing 15% FBS.

Compound | proliferation of iPS cell-derived CAR-T cells [1] | survival rate of iPS cell-derived CAR-T cells [1] | proliferation fold after thawing [2] | survival rates from day 0 to day 7 after thawing [2] | proliferation fold compared with a medium containing 15% FBS ([1]; 20 mM carnosine added to serum-free medium)
Cc1c(C)c2c(c(C)c1O)CCC(C)(CCCC(C)CCCC(C)CCCC(C)C)O2 (stereo not drawn) | promoted | improved | improved | improved | –
NCCC(=O)N[C@@H](Cc1cnc[nH]1)C(=O)O | promoted | improved | improved | improved | higher proliferation fold
